The record followed here is US9073853B2, “Cycloalkane carboxylic acid derivatives as CXCR3 receptor antagonists” (Sanofi, priority 2011, dated 2015).

Sequences of proteins named here, by UniProt entry; tags and fusion partners are left off. A change or cut given only in a name is not applied to a line headed by its entry.
UniProt P49682: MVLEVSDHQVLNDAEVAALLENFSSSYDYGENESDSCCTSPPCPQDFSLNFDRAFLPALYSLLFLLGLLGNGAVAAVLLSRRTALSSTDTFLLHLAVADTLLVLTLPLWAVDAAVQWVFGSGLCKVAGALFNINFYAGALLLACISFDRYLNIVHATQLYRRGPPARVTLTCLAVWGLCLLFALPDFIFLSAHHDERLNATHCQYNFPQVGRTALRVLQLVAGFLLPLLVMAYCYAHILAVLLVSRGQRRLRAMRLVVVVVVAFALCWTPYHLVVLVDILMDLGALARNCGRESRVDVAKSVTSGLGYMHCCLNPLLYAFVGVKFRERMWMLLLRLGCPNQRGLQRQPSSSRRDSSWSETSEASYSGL

SMILES strings stand for the structures.

This assay has as its target human CXCR3-A receptor (Homo sapiens (Human), UniProt P49682). The assay can be described thus: 125I-CXCL10 competition radioligand binding assay. To be noted: displacement of 125I-CXCL10 from membranes of CHO cells expressing human recombinant CXCR3-A. On the procedure: Compounds according to the invention as described are useful to block the interaction of CXCR3-A and CXCL10 in a radiolabelled binding assay. […] IC50 values were determined for the test compounds and used to explore the structure-activity relationships (SAR). […] This cell line was registered in Sanofi-Aventis cell line bank. […] Cell suspension was diluted with PBS and cells were collected with centrifugation at 230 g for 10 minutes at 10° C. with a Juan centrifuge. […] This suspension was homogenized with a Teflon/glass homogenizer (Sartorius potter S) with 3×10 sec pulses in ice cold water bath, and then centrifuged at 300×g for 10 min at 4° C. with a Sigma centrifuge. The supernatant was carefully collected and centrifuged at 100,000×g for 60 min at 4° with a Beckman Avanti J30 centrifuge. […] Protein concentration was determined with Bio-Rad protein assay (Cat No 500-0006). Membrane aliquots were stored at -80° C. No degradation was observed until a storage period of approximately 5 months. The composition of the binding assay buffer was determined in a course of detailed optimization procedure. […] Binding reaction was initiated by adding of membranes (10-20 μg proteins, approximately 5×10^5 cell equivalents) to the reaction mixture. […] The radioactivity retained on the filters was measured by a Wizard 1470 Automatic Gamma counter. […]

`COc1cc(CN(C[C@H]2CC[C@@H](C(=O)O)CC2)C(C)c2ccc3c(c2)CCO3)ccc1OCCN1C(=O)CCC1=O` (stereo partly drawn) [Example 2, cis-4-[([1-(2,3-Dihydro-benzofuran-5-yl)-ethyl]-{4-[2-(2,5-dioxo-pyrrolidin-1-yl)-ethoxy]-3-methoxy-benzyl}-amino)-methyl]-cyclohexanecarboxylic acid]: the 50% inhibitory concentration (IC50) – broadly, the concentration needed to halve the response being measured – was found to be 760 nM.
For `COc1cc(CN(C[C@H]2CC[C@H](C(=O)O)CC2)[C@@H](C)c2ccc3c(c2)CCO3)ccc1OCCN1C(=O)CCC1=O` [Example 4, trans-4-[([(S)-1-(2,3-Dihydro-benzofuran-5-yl)-ethyl]-{4-[2-(2,5-dioxo-pyrrolidin-1-yl)-ethoxy]-3-methoxy-benzyl}-amino)-methyl]-cyclohexanecarboxylic acid], the IC50 was determined as 37 nM.
